# Measured values taken from PubChem BioAssay AID492953 (The Scripps Research Institute Molecular Screening Center, 2010).
# The chains behind the UniProt entries cited, without tags or fusion partners. Where a name states a change or a piece, a line headed by the entry shows the natural chain unless it says otherwise.
# UniProt P68402: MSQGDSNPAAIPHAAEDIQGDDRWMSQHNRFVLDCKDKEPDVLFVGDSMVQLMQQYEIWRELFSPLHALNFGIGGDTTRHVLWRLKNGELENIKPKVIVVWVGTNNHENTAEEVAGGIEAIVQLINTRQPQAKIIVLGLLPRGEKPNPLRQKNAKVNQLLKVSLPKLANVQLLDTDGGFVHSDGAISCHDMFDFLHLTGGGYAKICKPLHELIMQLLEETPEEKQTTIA
# The entries are a selection whose mix differs from that of the whole data set. The source made the active and inactive calls.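 The calls were made as follows: active = inhibition above the mean of all tested compounds plus 3 SD (cut at about 24% in these data); inactive = the rest.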
# Target: Platelet-activating factor acetylhydrolase IB subunit alpha2 (Homo sapiens) (UniProt P68402)
# Test: inhibition of PAF acetylhydrolase 1b subunit 2 – biochemical, fluorescence polarization, human, primary screen (AID 492953);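 also: 0% = enzyme with DMSO and 100% = wells lacking PAFAH1B2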
# Settings: recombinant PAFAH1B2, FP-rhodamine activity probe, at 3.39 µM, stronger effect = higher value
row,SMILES,inhibition
1,CC1(CBr)Cn2c(nc3ccccc3c2=O)S1 (stereo not given),inactive: 7.58%
2,CN(C(=O)Cc1ccc(Cl)c(Cl)c1)[C@@H]1CCCC[C@H]1N1CCCC1,inactive: 6.74%
3,CC(C)/C=N\N=C(\N)N[N+](=O)[O-],inactive: 3.89%
4,COc1ccccc1CNC(=O)COC(=O)C(O)(c1ccccc1)c1ccccc1,inactive: -1.54%
5,Clc1n[nH]nc1-c1nn[nH][15n]1,inactive: 4.53%
6,CC(C)(C)C(=O)NC(Sc1ncccn1)C(Cl)(Cl)Cl (stereo not given),inactive: 4.36%
7,CCOP(=O)(Nc1ccc(C)cn1)OCC,inactive: 5.13%
8,CCC1=CC2Cc3nc4ccc(Cl)cc4c(N)c3C(C1)C2 (stereo not given),inactive: -1.24%
9,O=P1(Nc2ccccn2)COc2ccccc2OC1,inactive: -2.15%
10,CCOP(=O)(NC(=NC(C)c1ccccc1)NC(C)c1ccccc1)OCC (stereo not given),inactive: 4.29%
11,NS(=O)(=O)c1cccc(NC(=O)COC(=O)C(O)(c2ccccc2)c2ccccc2)c1,inactive: -1.86%
12,O=P1(Nc2ccc(Br)cn2)COc2ccccc2OC1,inactive: 1.24%
13,O=[As](O)(c1cccs1)c1cccs1,inactive: 0.37%
14,Cc1ccc(OCC(=O)OC2CN3CCC2CC3)cc1 (stereo not given),inactive: 0.09%
15,Nc1cccc([As](=O)(O)c2ccccc2)c1,inactive: 2.1%
16,O=P1(Nc2ncccn2)COc2ccccc2OC1,inactive: 6.84%
17,O=C(/C=C/c1ccccc1)OC1CN2CCC1CC2 (stereo not given),inactive: 4.1%
18,CCCC1OP(=O)(Nc2ccccc2)OCC1CC (stereo not given),inactive: 6.44%
19,CN(C)C1(CNC(=O)c2ccc(S(C)(=O)=O)cc2)CCCCC1,inactive: -4.19%
20,Cc1nn(-c2ccccc2)c2c1P(=O)(N1CCOCC1)N(C)C(c1ccccc1)=N2 (stereo not given),inactive: 9.57%
21,Cc1ccc(C(=O)OC2CN3CCC2CC3)cc1 (stereo not given),inactive: 0.5%
22,CC1CCC(C(C)C)C(OP(=O)(Nc2ccccn2)c2ccccc2)C1 (stereo not given),inactive: 20.1%
23,CN(C)C(=O)c1cc([N+](=O)[O-])cc2c1-c1c(cc([N+](=O)[O-])cc1[N+](=O)[O-])C2=O,inactive: 22.1%
24,O=[N+]([O-])c1ccc2c(c1)nnn2O,inactive: 2.79%
25,CN(C(=O)Cc1ccc(Cl)c(Cl)c1)[C@H]1CC[C@@]2(CCCO2)C[C@@H]1N1CCCC1,inactive: 3.02%

row,SMILES,inhibition
1,N#CCCN(C(=O)COC(=O)C(O)(c1ccccc1)c1ccccc1)c1ccc(F)cc1,inactive: 0.16%
2,CCOP1(=S)c2c(C)nn(CCC#N)c2N=C(c2ccc(F)cc2)N1C (stereo not given),inactive: -4.27%
3,CN(C(=O)Cc1ccccc1)[C@@H]1CC[C@]2(CCCO2)C[C@H]1N1CCCC1,inactive: 3.83%
4,NC(=O)Nc1ccc([As](=O)(O)O)cc1,inactive: -2.58%
5,O=C(O)COc1ccc([As](=O)(O)O)cc1[N+](=O)[O-],inactive: 1.75%
6,Nc1ccccc1[As](=O)(O)c1ccccc1,inactive: 1.11%
7,CS(=O)(=O)c1cc([N+](=O)[O-])c2no[n+]([O-])c2c1,inactive: 12.2%
8,CCOP1(=S)c2c(C)nn(CCC#N)c2N=C(c2ccccc2F)N1C (stereo not given),inactive: 7.41%
9,O=P(Nc1nccs1)(c1ccccc1)c1nc2ccccc2s1 (stereo not given),inactive: -1.03%
10,O=P(Nc1nccs1)(Oc1ccccc1)Oc1ccccc1,inactive: 2.21%
11,COc1cc(C2NCCC3(OCCO3)C2(C)C)cc(OC)c1OC (stereo not given),inactive: -5.67%
12,CCOP(=O)(Nc1cccc2ccccc12)OCC,inactive: -1.61%
13,CCCOP(=S)(Nc1nc(N)cc(=O)[nH]1)OCCC,inactive: 4.1%
14,Nc1cccc2c([As](=O)(O)O)cccc12,inactive: 8.33%
15,Cc1ccc(NCCc2c([N+](=O)[O-])cc([N+](=O)[O-])cc2[N+](=O)[O-])cc1,inactive: 11.7%
16,O=[As](O)(c1cccc(O)c1)c1cccc(O)c1,inactive: 3.24%
17,Cc1cccc(OCC(=O)OC2CN3CCC2CC3)c1 (stereo not given),inactive: -1.1%
18,COc1cc(C(=O)NCC2(N3CCOCC3)CCCCC2)cc(Cl)c1OC(C)C,inactive: 5.97%
19,O=[As](O)(O)c1cccnc1,inactive: 6.17%
20,CS(=O)(=O)c1ccc(Cl)c(NC(=O)COC(=O)C(O)(c2ccccc2)c2ccccc2)c1,inactive: 2.17%
21,O=C(OC1CN2CCC1CC2)c1ccc(Cl)cc1 (stereo not given),inactive: 4.33%
22,COc1ccc(N/C(=N/P(=O)(N2CCOCC2)N2CCOCC2)N2CCOCC2)cc1,inactive: 4.93%
23,O=[N+]([O-])c1cc(Oc2ccc([N+](=O)[O-])cc2C(F)(F)F)cc([N+](=O)[O-])c1,inactive: 8.64%
24,COc1ccc2nc(NP(=O)(c3ccccc3)c3ccccc3)sc2c1,inactive: 4.25%
25,COc1cc(I)ccc1[As](=O)(O)O,inactive: 4.49%

row,SMILES,inhibition
1,O=P1(N(CCCl)CCCl)Nc2ccccc2N1,inactive: 2.77%
2,O=P1(N(CCCl)CCCl)OCCCN1CCCl (stereo not given),inactive: 2.61%
3,O=C(OC1CN2CCC1CC2)C12CC3CC(CC(C3)C1)C2 (stereo not given),inactive: 5.47%
4,Cc1cc(=O)[nH]c(N[N+](=O)[O-])n1,inactive: -1.15%
5,Cc1c2c(nc3ccccc13)SC(C(Cl)Cl)C2 (stereo not given),inactive: 7.59%
6,O=C(OC1CN2CCC1CC2)c1cccc2[nH]cnc12 (stereo not given),inactive: -3.13%
7,CCN(CC)C(=S)SC(NC=O)C(Cl)(Cl)Cl (stereo not given),inactive: 3.91%
8,O=[N+]([O-])c1cc([N+](=O)[O-])c(-c2ccn[nH]2)s1,inactive: 2.28%
9,CC(C)c1ccc(OP(=O)(Nc2ccccn2)Oc2ccccc2F)cc1 (stereo not given),inactive: -3.11%
10,COC(=O)C1(C)COP(=O)(N2CCCCCC2)OC1 (stereo not given),inactive: 9.22%
11,ClCCSc1nnc(-c2cccnc2)o1,inactive: -3.22%
12,Cc1ccc2nc3c(c(C)c2c1)CC(C(Cl)Cl)S3 (stereo not given),inactive: 2.3%
13,Cc1ccc(OP(=O)(Nc2ccc([N+](=O)[O-])cn2)Oc2ccc(C)cc2)cc1,inactive: -1.12%
14,C[As](=O)(O)c1cccc(C(=O)O)c1,inactive: -0.69%
15,O=[As](O)(c1ccc(O)cc1)c1ccccc1O,inactive: 4.01%
16,COc1cc(C(=O)NCC2(N3CCOCC3)CCCCC2)ccc1OCC(C)C,inactive: -0.93%
17,O=[N+]([O-])c1ccc(-c2cc([N+](=O)[O-])c(O)c([N+](=O)[O-])c2)cc1,inactive: 5.17%
18,O=[N+]([O-])c1ccc(Nc2ccc(Oc3ccc([N+](=O)[O-])cc3[N+](=O)[O-])cc2)c([N+](=O)[O-])c1,inactive: 6.09%
19,Cc1cc(SC(NC=O)C(Cl)(Cl)Cl)ncn1 (stereo not given),inactive: -2.2%
20,O=P(Nc1ccccn1)(c1cccc2ccccc12)c1cccc2ccccc12,inactive: 6.13%
21,CCOC(=O)Nc1cccc([As](=O)(O)O)c1,inactive: -5.8%
22,CCCCOc1ccc(C(=O)NCC2(N3CCCCC3)CCCCC2)cc1OC,inactive: -2.69%
23,Cc1cc(SC(NC(=O)c2ccccc2)C(Cl)(Cl)Cl)nc(C(C)C)n1 (stereo not given),inactive: 4.12%
24,CC1CCNP(=O)(N(CCCl)CCCl)O1 (stereo not given),inactive: 3.09%
25,CCOC(=O)Nc1ccc([As](=O)(O)O)c(O)c1,inactive: 4.73%

row,SMILES,inhibition
1,CCC(C)N(CC(C)C)C(=S)SC(NC(C)=O)C(Cl)(Cl)Cl (stereo not given),inactive: 19.3%
2,CCOC(=O)c1ccc(NC(=O)C(C)(CCl)SC)cc1 (stereo not given),inactive: 7.98%
3,O=C(OC1CN2CCC1CC2)c1cccc([N+](=O)[O-])c1 (stereo not given),inactive: 3.83%
4,O=C(COc1ccccc1)OC1CN2CCC1CC2 (stereo not given),inactive: 6.21%
5,O=C(Nc1ccncc1[N+](=O)[O-])c1ccc([N+](=O)[O-])cc1[N+](=O)[O-],inactive: 0.02%
6,COP1(=S)c2c(C)nn(CCC#N)c2N=C(c2ccc(F)cc2)N1C (stereo not given),inactive: -2.18%
7,CC(C)=N/N=C(\N)N[N+](=O)[O-],inactive: -5.54%
8,CN(C)C(=O)OCCc1n(C)cc[n+]1C,inactive: -0.09%
9,CC1CCN(C(=O)Oc2c(Cl)cc(Cl)c3cccnc23)CC1,inactive: 2.65%
10,Nc1ccc([As](=O)(O)c2ccc(N)cc2)cc1,inactive: 3.54%
11,C[N+]1=C2C=CC=CC=C2SC12C([N+](=O)[O-])=CC([N+](=O)[O-])=C[C-]2[N+](=O)[O-] (stereo not given),inactive: 14.2%
12,CCN(/C(=N/P(=O)(N1CCOCC1)N1CCOCC1)N1CCOCC1)c1ccc(OC)cc1,inactive: -3.8%
13,CC(=O)N1C2C3N(C(C)=O)C1C1N(C(C)=O)C(C(N1C(C)=O)N3C(C)=O)N2C(C)=O,inactive: 0.18%
14,O=[N+]([O-])c1cccc2n[nH]nc12,inactive: 6.87%
15,Cc1ccc(NP(=O)(Oc2ccccc2)Oc2ccccc2)nc1,inactive: -0.56%
16,O=[N+]([O-])c1cc([N+](=O)[O-])c(CCNc2ccccc2)c([N+](=O)[O-])c1,inactive: 16.3%
17,CCc1nc2c(n1)c1c(non1O)c1c2no[n+]1[O-],inactive: 11.2%
18,COc1ccc(C2=NCC(CBr)S2)cc1 (stereo not given),inactive: 0.94%
19,O=[N+]([O-])c1cccc(NC2=NCC(CBr)S2)c1 (stereo not given),inactive: 4.16%
20,COC(=O)C1(C)COP(=O)(Nc2ccccc2)OC1 (stereo not given),inactive: 3.52%
21,O=C(O)CNc1ccc([As](=O)(O)O)cc1,inactive: 3.57%
22,CC(C)(C)C(=O)NC(Sc1ccncn1)C(Cl)(Cl)Cl (stereo not given),inactive: 3.13%
23,O=[N+]([O-])c1ncn(CCn2ncnc2[N+](=O)[O-])n1,inactive: -3.36%
24,O=C(Nc1cc([As](=O)(O)O)ccc1O)c1ccccc1,inactive: 5.87%
25,O=P1(N(CCCl)CCCl)OCCCS1 (stereo not given),inactive: 6.31%
